Measurements as given in patent publication US8735632B2, “Compounds” (DSM IP Assets B.V., priority 2009, dated 2014).

Key:
[1] = e.g. C12-15 alkyl benzoate or diisopropyl sebaceate; typical value; cited from earlier work
[2] = Solubility in C12-15 alkyl benzoate: saturation of the solvent, content in the supernatant by HPLC; format: physicochemical; conditions: pure cosmetic solvent
[3] = Solubility of BMDBM/BEMT in 1:1 (w/w) mixture C12-15 alkyl benzoate/PG-UVB, stored 1 month at RT, no re-crystallization; format: physicochemical
[4] = Reduction of solvent necessary to dissolve solid UV-filter; format: physicochemical
[5] = C12-15 alkyl benzoate/PG-UVB 1:1 versus C12-15 alkyl benzoate

Solubility in C12-15 alkyl benzoate [2]: 14 wt.-% | Δ solubility related to cosmetic solvent ([3]; C12-15 alkyl benzoate/PG-UVB 1:1): +13 wt.-% | Increase of solubility BMDBM/BEMT [3, 5]: +43% | Δ solubility [3, 5]: +6 wt.-% | amount of C12-15 alkyl benzoate necessary to solubilize 0.5 g BMDBM ([4]; pure C12-15 alkyl benzoate): 3.0 g | amount of diisopropyl sebacate necessary to solubilize 0.5 g BMDBM ([4]; pure diisopropyl sebacate): 2.0 g
Substance: butyl methoxydibenzoylmethane [BMDBM]
solubility in the conventional cosmetic oils [1]: less than 20%
